{"source": "patent US4701406A", "about": "“Assay for the detection of epigenetic toxic (non-genotoxic) substances” (priority 1984, dated 1987)", "tested_on": "cytoskeletal elements (microtubules) of quiescent 3T3 cells", "conditions": "taxol in combination with CDNB, chromium, and nickel; FIGS. 2e-2g"}
{"compound": "CC(=O)O[C@H]1C(=O)[C@@]2(C)[C@H]([C@H](OC(=O)c3ccccc3)[C@]3(O)C[C@H](OC(=O)[C@H](O)[C@@H](NC(=O)c4ccccc4)c4ccccc4)C(C)=C1C3(C)C)[C@]1(OC(C)=O)CO[C@@H]1C[C@@H]2O", "note": "[taxol]", "values": [{"measurement": "protection from cytoskeletal disruption", "value": "prevented cytoskeletal disruption"}]}
